Patent publication US11377429B2, “Benzothia(di)azepine compounds and their use as bile acid modulators” (Albireo AB, priority 2020, dated 2022)

Amino acid sequences for entries named in this document (tags omitted).
UniProt Q14973, whole entry: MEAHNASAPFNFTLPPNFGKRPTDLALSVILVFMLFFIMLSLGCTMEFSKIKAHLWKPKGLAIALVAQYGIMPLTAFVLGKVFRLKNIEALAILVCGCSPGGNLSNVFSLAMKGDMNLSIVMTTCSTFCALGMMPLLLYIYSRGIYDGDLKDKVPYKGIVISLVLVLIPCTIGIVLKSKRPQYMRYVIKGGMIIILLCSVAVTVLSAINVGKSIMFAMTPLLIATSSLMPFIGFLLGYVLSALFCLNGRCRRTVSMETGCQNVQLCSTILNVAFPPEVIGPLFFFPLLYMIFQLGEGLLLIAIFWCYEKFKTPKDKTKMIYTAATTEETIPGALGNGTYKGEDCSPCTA
UniProt Q12908, whole entry: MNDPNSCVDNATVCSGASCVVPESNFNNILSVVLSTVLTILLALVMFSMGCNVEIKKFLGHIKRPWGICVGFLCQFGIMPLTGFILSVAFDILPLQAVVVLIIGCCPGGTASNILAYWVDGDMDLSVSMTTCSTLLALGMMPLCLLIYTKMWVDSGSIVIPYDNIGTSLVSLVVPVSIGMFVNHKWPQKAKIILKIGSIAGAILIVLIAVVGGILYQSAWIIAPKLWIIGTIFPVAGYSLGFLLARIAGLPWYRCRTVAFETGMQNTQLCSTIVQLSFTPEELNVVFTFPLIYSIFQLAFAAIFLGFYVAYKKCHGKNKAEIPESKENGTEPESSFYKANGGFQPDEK

Experiments:
Human LBAT = Human LBAT (Homo sapiens, UniProt Q14973); assay: LBAT (h/m) assay, human LBAT-overexpressing cells, 3H-taurocholic acid uptake; details: read-out: hLBAT IC50
Human IBAT = Human IBAT (Homo sapiens, UniProt Q12908); assay: IBAT (h/m) assay, human IBAT-overexpressing cells, 3H-taurocholic acid uptake; details: read-out: hIBAT IC50

| IC50 (Human LBAT) [nM] | IC50 (Human IBAT) [nM] | SMILES |
| --- | --- | --- |
| 472 | 701 | CCC1(CC)CN(c2ccccc2)c2cc(SC)c(OCC(C)(F)C(=O)O)cc2S(=O)(=O)C1 (single isomer, unassigned) [7, enantiomer 2] |
| 903 | 3 | CCCCC1(CC)CN(c2ccc(F)cc2)c2cc(SC)c(OCC3(C(=O)O)CC3)cc2S(=O)(=O)C1 (single isomer, unassigned) |
| 50 | 175 | CCC1(CC)CN(c2ccccc2)c2cc(SC)c(OCC(C)(F)C(=O)O)cc2S(=O)(=O)C1 (single isomer, unassigned) [7, enantiomer 1] |

| SMILES | IC50 (Human LBAT) [nM] | IC50 (Human IBAT) [nM] |
| --- | --- | --- |
| CCCCC1(CC)CN(c2ccc(F)cc2)c2cc(SC)c(OCC(C)(C)C(=O)O)cc2S(=O)(=O)C1 (single isomer, unassigned) | 138 | 7 |
